Laboratory results published in ChEMBL document CHEMBL1121803, “4-aryl-4-aminocyclohexanones and their derivatives, a novel class of analgesics. 3. m-Hydroxyphenyl derivates” (1981).
Values joined by “and” are separate entries in the source; they are usually repeats but may differ in a detail not shown here. Identical values can stand only once.

Legend:
Mus musculus [1] = species on record: Mus musculus; assay: Antagonistic activity by measuring blockade of morphine-induced elevation of tail flick latency in CF-1 female mice
Mus musculus [2] = species on record: Mus musculus; assay: Sedation test by employing inclined screen test in CF-1 female mice

Row | SMILES | ED50 (Mus musculus [1]) | ED50 (Mus musculus [2])
1 | CN(CC1CC1)C1(c2cccc(O)c2)CCC2(CC1)OCCO2 | > 100 mg/kg | > 100 mg/kg
2 | CN(C)C1(c2cccc(O)c2)CCC(O)CC1 (configuration not stated) | 18 mg/kg | > 100 mg/kg
3 | CCCCCN(C)C1(c2cccc(O)c2)CCC2(CC1)OCCO2 | > 25 mg/kg | > 25 mg/kg
4 | CN(C)C1(c2cccc(O)c2)CCC2(CC1)OCCCO2 | 32 mg/kg | > 100 mg/kg
5 | CN(C)C1(c2cccc(O)c2)CCC(C)(O)CC1 (configuration not stated) | > 100 mg/kg | > 200 mg/kg
6 | C=CCN(C)C1(c2cccc(O)c2)CCC2(CC1)OCCO2 | 141 mg/kg | > 200 mg/kg
7 | CN(C)C1(c2cccc(O)c2)CCC(O)(Cc2ccccc2)CC1 (configuration not stated) | > 100 mg/kg | > 100 mg/kg and 71 mg/kg
8 | CN(C)C1(c2cccc(O)c2)CCC2(CC1)OCCO2 | 13 mg/kg | > 100 mg/kg
9 | CCCCN(C)C1(c2cccc(O)c2)CCC2(CC1)OCCO2 | > 100 mg/kg | > 100 mg/kg
10 | CN(C)C1(c2cccc(O)c2)CCC(=O)CC1 | 40 mg/kg | > 200 mg/kg
11 | CN(C)C1(c2cccc(O)c2)CCC2(CC1)OCC(c1ccccc1)CO2 (configuration not stated) | > 100 mg/kg | > 100 mg/kg
12 | CN(CCOc1ccccc1)C1(c2cccc(O)c2)CCC2(CC1)OCCO2 | > 100 mg/kg | > 100 mg/kg
13 | CN(C)C1(c2cccc(O)c2)CCC2(CC1)OCC(C)(C)CO2 | > 100 mg/kg | > 100 mg/kg
14 | C=CCC1COC2(CCC(c3cccc(O)c3)(N(C)C)CC2)OC1 (configuration not stated) | > 100 mg/kg | > 100 mg/kg
15 | CC(C)CN(C)C1(c2cccc(O)c2)CCC2(CC1)OCCO2 | > 25 mg/kg | > 25 mg/kg
16 | CCCN(C)C1(c2cccc(O)c2)CCC2(CC1)OCCO2 | 79 mg/kg | > 100 mg/kg
